Settings: mouse, in vivo, po, 40 mg/kg
Protocol: The animals were housed at a temperature of 22-24° C., humidity of 50% (+/−10%), in a room providing 15 air changes per hour, with 12:12 hours light-dark cycle. In addition, they had constant access to food and water. […] Blood was allowed to clot at room temperature for 20 min, then centrifuged for 5 min, 10,000×g (Eppendorf miniSpin centrifuge, Germany) to obtain serum. The obtained biological material was stored at −70° C. until analysis.
Concentrations of the tested compounds in murine serum and brain homogenates were determined by high-performance liquid chromatography-tandem mass spectrometry (HPLC-MS/MS). Analyzes were performed on a Sciex QTRAP 4500 triple quad mass spectrometer coupled to an Exion LC AC HPLC (Danaher Corporation, USA). The chromatographic separation was carried out on a Hypersil Gold™ C18 column (3×50 mm, 5 μm, Thermo Scientific, USA), using a mixture of acetonitrile and water with 0.1% formic acid as the mobile phase. Analyzes were performed at 40° C. and the gradient shown in Table 7 was used to obtain optimal retention time. Valsartan was used as an internal standard. Positive ionization mode (ESI+) was used for maximum sensitivity. Ion path parameters were optimized by continuous infusion (7 μL/min) of a solution of the tested compound directly to the mass spectrometer using a syringe pump. […]

In the case of `[2H]C([2H])(NC(=O)[C@@H](C)N1C(=O)C([2H])([2H])C([2H])([2H])C1=O)c1ccccc1F` [d6-(R)-7, (R)-2-(2,5-dioxopyrrolidin-1-yl-3,3,4,4-d4)-N-((2-fluorophenyl)methyl-d2) propanamide], the Vz/F is reported as 1.45 L/kg.

— patent US20250042848A1, “DEUTERATED FUNCTIONALIZED DERIVATIVES OF alpha-ALANINE, IN [sequence] FOR THE TREATMENT OF NEUROLOGICAL DISEASES” (UNIWERSYTET JAGIELLONSKI, priority 2021, published 2025)
